The source of these data is US20130011378A1, “Stable formulations of a hyaluronan-degrading enzyme” (priority 2011, published 2013).

A short description of data set [1]: RP-HPLC: insulin apparent solubility / percent recovery. The note with it: stabilizer screening in rHuPH20/insulin formulation, semi-quantitative in comparison with NaCl, samples stored at 5° C. Here is the method: Apparent solubility was measured as the percent insulin recovery as compared to the initial formulations/conditions.
Samples were prepared by withdrawing 100 μL from each vial at every time point and centrifuging prior to loading. Samples were stored in an autosampler at 4° C. prior to use, and were considered stable for 3 days after preparation. All samples were tested in duplicate.
For insulin, 20 μL was injected for each HPLC run.
To determine the apparent solubility, the peak area of insulin/insulin analog main peak and desamido peak were integrated and combined together to calculate the percentage relative to the standards. […] The data were processed using Design-Expert® 7.0 (StatEase) and the “historical data” feature. Insulin percent purity was expressed as the percent of main insulin versus all insulin species.

The next data set deals with T1, rHuPH20 (Homo sapiens, UniProt P38567).
T1 construct: made in house; host or cells: CHO cells (DG44 CHO, HZ24 plasmid, clone 2B2)
T1 sequence (P38567 36-482): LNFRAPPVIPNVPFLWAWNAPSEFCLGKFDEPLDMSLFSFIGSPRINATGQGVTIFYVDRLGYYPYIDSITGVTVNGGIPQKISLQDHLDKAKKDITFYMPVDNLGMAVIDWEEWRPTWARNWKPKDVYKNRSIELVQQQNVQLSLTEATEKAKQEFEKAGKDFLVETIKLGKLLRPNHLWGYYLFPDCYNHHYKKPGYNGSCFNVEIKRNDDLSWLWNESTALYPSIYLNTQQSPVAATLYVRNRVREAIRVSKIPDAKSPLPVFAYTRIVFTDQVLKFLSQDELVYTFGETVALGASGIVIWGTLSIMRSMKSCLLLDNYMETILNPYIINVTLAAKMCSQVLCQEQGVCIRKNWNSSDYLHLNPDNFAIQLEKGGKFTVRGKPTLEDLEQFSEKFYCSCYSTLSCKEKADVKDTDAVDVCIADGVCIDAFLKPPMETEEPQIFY
The data set is described as follows: Determination of hyaluronidase activity of rHuPH20, turbidimetric assay (Example 2, variant not specified). It is filed as biochemical. The note with it: stabilizer screening in rHuPH20/insulin formulation, semi-quantitative in comparison with NaCl; samples incubated at 30° C. for about one week.

With Human serum albumin, in data set [1], the “Effect on insulin solubility” value is listed as “No effect”. Moreover, in the data set with rHuPH20, the “Effect on rHuPH20 enzymatic activity” value was “No effect”.
